Data on 69 molecules can be found in patent publication US12507703B2, “Methods, devices and compositions for preserving human milk” (The Trustees of Princeton University, priority 2023, dated 2025).

The assay relates to lipase. Nature of the assay: Lipase/lipolysis assay (EnzChek Lipase Substrate, quenched BODIPY-fatty acid conjugate) on stored human milk.
Setting [1] is: Food Additive Library compound added to fresh human milk, stored 1 week at −20° C., thawed at room temperature, RFU of <400 considered a hit.
[2] abbreviates: compound added to fresh human milk, stored 1 week at −20° C., thawed at room temperature, RFU <400 considered a hit.
Setting [3] is: Food-Sourced Compound Library compound added to fresh human milk, stored 1 week at −20° C., thawed at room temperature, RFU <400 considered a hit.
The mark [4] stands for this setting: Biolog PM1 compound added to fresh human milk, stored 1 week at −20° C., RFU <400 = hit.
The mark [5] stands for this setting: Biolog PM4 compound added to fresh human milk, stored 1 week at −20° C., RFU <400 = hit.
Setting [6] is: Biolog PM5 compound added to fresh human milk, stored 1 week at −20° C., RFU <400 = hit.
Where [7] appears, read: Biolog PM2a compound added to fresh human milk, stored 1 week at −20° C., RFU <400 = hit.

As for `COC(=O)C1CCCCC1` [Methyl cyclohexanecarboxylate], under setting [1], the “Lipase (RFU)” value came out at 1098.735 RFU. Still for that read-out and setting: then `CSSSC` [Dimethyl trisulfide], with 894.0785 RFU. On to `NC(C(=O)O)C(=O)O` [Aminomalonic acid], for which the “Lipase (RFU)” value under setting [2] was 801.3808 RFU.

On to `CCCCCCCCCCCCCCCCCCCCCCCCCCCCC` [Nonacosane], for which the “Lipase (RFU)” value under setting [3] turned out to be 1064.291 RFU. With `COc1cc(C(C)=O)ccc1O` [Apocynin], the “Lipase (RFU)” value under setting [2] stood at 1043.43 RFU. On to `CO[C@@H]1O[C@H](CO)[C@@H](O)[C@H](O)[C@H]1O` [Methyl β-D-glucopyranoside], for which, under setting [3], the “Lipase (RFU)” value was 1077.056 RFU. Take `C[C@H](O)[C@@H](O)[C@@H](O)[C@H](O)C=O` [(−)-Fucose]: the “Lipase (RFU)” value under setting [3] was 950.5714 RFU. As to `OCC(O)CO` [Glycerol], under setting [4], the “Lipase (RFU)” value is listed as 1079.2 RFU. On to `C/C=C(\CC[C@@H](C)[C@H]1CC[C@H]2[C@@H]3CC=C4C[C@@H](O)CC[C@]4(C)[C@H]3CC[C@]12C)C(C)C` [Fucosterol], for which the “Lipase (RFU)” value under setting [2] is listed as 973.5706 RFU.

For `CCCCC/C=C\C/C=C\C/C=C\C/C=C\CCCC(=O)O` [Arachidonic acid], under setting [2], the “Lipase (RFU)” value stood at 1207.834 RFU. Regarding `O=C(O)CCCc1c[nH]c2ccccc12` [Indole-3-butyric acid], the “Lipase (RFU)” value under setting [3] is listed as 1084.211 RFU. For the molecule `N[C@@H](COP(=O)(O)O)C(=O)O` [O-Phospho-L-Serine], the “Lipase (RFU)” value under setting [5] is recorded as 952.4768 RFU. Regarding `CC1=CC=C(C(C)C)CC1` [α-Terpinene], under setting [1], the “Lipase (RFU)” value stood at 1101.898 RFU. Consider `O=C(O)C(O)c1ccc(O)cc1` (centres unmarked) [p-Hydroxymandelic acid], for which the “Lipase (RFU)” value under setting [3] came to 1340.37 RFU. With `CC(CCC(=O)NCC(=O)O)C1CCC2C3CCC4CC(O)CCC4(C)C3CC(O)C12C` (centres unmarked) [Glycodeoxycholic acid (monohydrate)], under setting [2], the “Lipase (RFU)” value is on record as 1203.201 RFU. For the molecule `O=C(/C=C/c1ccc(O)c(O)c1)O[C@H](Cc1ccc(O)c(O)c1)C(=O)O` [Rosmarinic Acid], the “Lipase (RFU)” value (Table 7, single compound 20 mg/mL, human milk stored 1 week at −20° C., inhibited if RFU <400) is 807.614 RFU. Consider `CC(C)=CC(=O)O` [3-Methylbut-2-enoic acid], for which the “Lipase (RFU)” value under setting [1] turned out to be 818.9086 RFU and the “Lipase (RFU)” value under setting [2] is 995.2617 RFU. Regarding `O=C(O)/C=C/C=C/C(=O)O` [trans-trans-Muconic acid], the “Lipase (RFU)” value under setting [3] stood at 1096.606 RFU. Regarding `O=C1C=CC(=O)c2ccccc21` [1,4-Naphthoquinone], the “Lipase (RFU)” value under setting [2] is 822.1115 RFU. Same read-out and setting: then `Cc1cc(O)c2c(c1)C(=O)c1cc(O)cc(O)c1C2=O` [Emodin], with 865.2266 RFU. For `C=C1C[C@@]23CC[C@H]4[C@@](C)(CCC[C@@]4(C)C(=O)O)[C@@H]2CC[C@@H]1C3` [Kaurenoic acid], the “Lipase (RFU)” value under setting [3] was determined as 863.4076 RFU. For the molecule `COc1ccc(CC(=O)O)cc1` [2-(4-Methoxyphenyl)acetic acid], under setting [2], the “Lipase (RFU)” value is 919.1732 RFU. In the case of `CC(O)(CC(=O)O)CC(=O)O` [Meglutol], the “Lipase (RFU)” value under setting [2] stood at 965.3573 RFU. For `OC[C@H]1O[C@H](OC[C@H]2O[C@H](O[C@]3(CO)O[C@H](CO)[C@@H](O)[C@@H]3O)[C@H](O)[C@@H](O)[C@@H]2O)[C@H](O)[C@@H](O)[C@H]1O` [Raffinose], under setting [2], the “Lipase (RFU)” value is recorded as 676.4373 RFU. Consider `Nc1ncnc2c1ncn2[C@@H]1O[C@H](CO)[C@@H](O)[C@H]1O` [Adenosine], for which the “Lipase (RFU)” value under setting [6] stood at 952.179 RFU. As for `COc1cc(O)c2c(c1)O[C@H](c1ccc(O)cc1)CC2=O` [Sakuranetin], under setting [2], the “Lipase (RFU)” value is 675.5882 RFU.

With `N[C@@H](Cc1ccc(OP(=O)(O)O)cc1)C(=O)O` [O-Phospho-L-Tyrosine], under setting [5], the “Lipase (RFU)” value is recorded as 844.9342 RFU. With `O=c1c(-c2ccccc2)coc2ccccc12` [Isoflavone], the “Lipase (RFU)” value under setting [3] is 913.1429 RFU. As to `Cc1cnc(C)cn1` [2,5-Dimethylpyrazine], the “Lipase (RFU)” value by setting is: under setting [1], 915.4387 RFU; under setting [2], 1051.204 RFU. As for `CC(C)=CCC/C(C)=C/COc1c2ccoc2cc2oc(=O)ccc12` [Bergamottin], the “Lipase (RFU)” value under setting [2] is listed as 795.0103 RFU. As to Liensinine (Diperchlorate), the “Lipase (RFU)” value under setting [3] was 826.0249 RFU. For `NC(=O)NC(NC(N)=O)C(=O)O` [Allantoic acid], under setting [3], the “Lipase (RFU)” value worked out at 639.3876 RFU. Consider `CCCCCCC(C=O)=Cc1ccccc1` [α-Hexylcinnamaldehyde], for which, under setting [1], the “Lipase (RFU)” value came out at 915.619 RFU. `O=C(O)c1cccc(O)c1` [3-Hydroxybenzoic acid]: the “Lipase (RFU)” value under setting [2] is 901.3799 RFU. Consider `NC(CCCC(N)C(=O)O)C(=O)O` (centres unmarked) [2,6-Diaminoheptanedioic acid], for which the “Lipase (RFU)” value under setting [2] came out at 846.2971 RFU. Same read-out and setting: with `O=C(O)CCCCCCCCCCCC(=O)O` [Tridecanedioic acid] the figure was 1127.183 RFU.

Turning to `CC=Cc1ccc(OC(C)=O)c(OC)c1` [Isoeugenol acetate], the “Lipase (RFU)” value under setting [1] was 756.3358 RFU. Regarding `O=C(O)[C@@H]1CCCN1` [L-Proline], the “Lipase (RFU)” value is reported as 933.1142 RFU under setting [4], 680.3258 RFU under setting [6], 765.3953 RFU under setting [1] and 1004.063 RFU under setting [3]. Consider `CC(=O)N[C@@H](Cc1ccccc1)C(=O)O` [N-Acetyl-L-phenylalanine], for which, under setting [2], the “Lipase (RFU)” value turned out to be 895.4408 RFU. On to `Cc1ccc(C(=O)O)cc1C` [3,4-Dimethylbenzoic acid], for which, under setting [2], the “Lipase (RFU)” value turned out to be 971.2489 RFU. On to `C/C(=C/C(=O)O)C(=O)O` [Citraconic Acid], for which the “Lipase (RFU)” value came to 837.0688 RFU under setting [7] and 914.7322 RFU under setting [3].

For the molecule `Cc1ncc(CO)c(CN)c1O` [Pyridoxamine], under setting [6], the “Lipase (RFU)” value was determined as 954.5832 RFU.

As for `CS(C)(=O)=O` [Dimethyl sulfone], the “Lipase (RFU)” value under setting [2] came to 871.2068 RFU. For the molecule `CCCCCCCCCCCCCCCC(=O)OC/C=C(C)/C=C/C=C(C)/C=C/C1=C(C)CCCC1(C)C` [Retinyl palmitate], the “Lipase (RFU)” value was 1094.036 RFU under setting [1] and 860.1081 RFU under setting [2]. As for `OCC=Cc1ccccc1` [Cinnamyl Alcohol], the “Lipase (RFU)” value turned out to be 1000.49 RFU under setting [1] and 740.7814 RFU under setting [3]. With `C[C@H](O)CC(=O)O` [(S)-3-Hydroxybutanoic acid], the “Lipase (RFU)” value under setting [3] was 979.3394 RFU.

Regarding `COc1cc(C=O)ccc1O[C@@H]1O[C@H](CO)[C@@H](O)[C@H](O)[C@H]1O` [Glucovanillin], the “Lipase (RFU)” value under setting [3] stood at 819.6719 RFU. For `CCOc1ccc(O)cc1` [Compound 4-Ethoxyphenol, 4-Ethoxyphenol], the “Lipase (RFU)” value under setting [1] was determined as 783.4549 RFU. As to `Cc1cc2nc3c(=O)[nH]c(=O)nc-3n(C[C@H](O)[C@H](O)[C@H](O)CO)c2cc1C` [Riboflavin], the “Lipase (RFU)” value runs as follows: under setting [6], 1037.621 RFU; under setting [1], 837.9833 RFU.

In the case of `COc1ccc2ccc(=O)oc2c1` [Herniarin], the “Lipase (RFU)” value under setting [2] is recorded as 690.7558 RFU.

Regarding `COc1cc(CCO)ccc1O` [Homovanillyl alcohol], the “Lipase (RFU)” value under setting [2] was 1114.77 RFU. As to Gelatin, under setting [7], the “Lipase (RFU)” value is listed as 658.8161 RFU. As to `O=C(O)C(=O)CO` [Hydroxypyruvic acid], the “Lipase (RFU)” value by setting is: under setting [1], 1051.111 RFU; under setting [3], 1244.252 RFU.

With `O[C@@H]1[C@@H](O)[C@@H]2OC[C@@H](O2)[C@H]1O` [Levoglucosan], under setting [3], the “Lipase (RFU)” value came to 572.1788 RFU.

Turning to `O=P(O)(O)OC[C@H]1OC(O)(COP(=O)(O)O)[C@@H](O)[C@@H]1O` (some centres unmarked) [Fosfructose (trisodium)], the “Lipase (RFU)” value under setting [3] is on record as 1022.707 RFU. `C[C@@H]1O[C@@H](O[C@H]2[C@H](Oc3cc(O)c4c(c3)O[C@H](c3ccc(O)cc3)CC4=O)O[C@H](CO)[C@@H](O)[C@@H]2O)[C@H](O)[C@H](O)[C@H]1O` [Naringin]: the “Lipase (RFU)” value under setting [2] was 1050.76 RFU.

For `CCCCCCCCCCCCCCCC(=O)OCC` [Ethyl palmitate], the “Lipase (RFU)” value under setting [1] was 965.2005 RFU. In the case of `CC(CCC(=O)NCC(=O)O)C1CCC2C3C(O)CC4CC(O)CCC4(C)C3CCC12C` (centres unmarked) [Glycochenodeoxycholic acid], the “Lipase (RFU)” value under setting [2] was 983.0896 RFU.

Regarding `O=c1[nH]c(=O)c2nccnc2[nH]1` [Pteridine-2,4(1H,3H)-dione], the “Lipase (RFU)” value under setting [2] was 812.9137 RFU.

Turning to `CC(=O)c1ccccc1O` [2′-Hydroxyacetophenone], under setting [1], the “Lipase (RFU)” value is listed as 1043.491 RFU. As for `CCCCCCCCCCCCCCCC(=O)O` [Palmitic acid], the “Lipase (RFU)” value under setting [1] is 1053.18 RFU. For `CSCCC(=O)O` [3-(Methylthio)propionic acid], the “Lipase (RFU)” value under setting [3] stood at 1259.269 RFU. Still for that read-out and setting: with `CC(CCC(=O)O)CC(=O)O` (centres unmarked) [3-Methyladipic acid] the figure was 819.9749 RFU; with `O=C(O)/C=C(/CC(=O)O)C(=O)O` [(Z)-Aconitic acid], 921.627 RFU. Take `C[C@@H]1O[C@@H](O[C@H]2[C@H](Oc3cc(O)c(C(=O)CCc4ccc(O)cc4)c(O)c3)O[C@H](CO)[C@@H](O)[C@@H]2O)[C@H](O)[C@H](O)[C@H]1O` [Naringin Dihydrochalcone]: under setting [1], the “Lipase (RFU)” value is recorded as 688.775 RFU. As for `C[S+]([O-])CC[C@H](N)C(=O)O` (some centres unmarked) [Methionine sulfoxide], the “Lipase (RFU)” value under setting [2] amounted to 1067.927 RFU. `COc1cc(CO)ccc1O` [Vanillyl alcohol]: the “Lipase (RFU)” value came out at 1046.308 RFU under setting [1] and 883.0853 RFU under setting [2]. On to `O=C1OC[C@H]2OC(O)[C@H](O)[C@@H](O)[C@@H]2OC(=O)c2cc(O)c(O)c(O)c2-c2c(O)c(O)c3oc(=O)c4c(c(O)c(O)c5oc(=O)c2c3c54)-c2c1cc(O)c(O)c2O` (mixture of isomers) [Punicalin], for which the “Lipase (RFU)” value under setting [3] is 818.9774 RFU. Turning to `COc1cc(/C=C/c2cc(O)cc(O)c2)ccc1O` [Isorhapontigenin], under setting [2], the “Lipase (RFU)” value is 862.0442 RFU.
